Only a part is listed here, and it is no random draw. Calls of active or inactive are those of the source.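 Rule for the calls: active = fluorescence ratio to DMSO below 75%, the collection mean minus 3 SD; inconclusive = too few cells collected in the well; inactive = the rest.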
biological target: ATP-binding cassette sub-family B member 6 (Homo sapiens) (UniProt Q9NP58); assay: blockers of ABCB6-driven porphyrin uptake – K562-ABCB6 cells, flow cytometry, MLPCN library, primary screen (AID 602162); conditions: K562-ABCB6 porphyrin accumulation, 1 h, at 10 µM, hits give low values;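 note: signal is porphyrin accumulated inside mitochondria; 100% equals median channel fluorescence of DMSO control wells; lower ratio means ABCB6 inhibition with less porphyrin fluorescence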

Chains of the proteins cited; added tags and fusions are not shown. Lines headed by an entry give the natural chain unless they say otherwise; changes in a name come on top.
UniProt Q9NP58: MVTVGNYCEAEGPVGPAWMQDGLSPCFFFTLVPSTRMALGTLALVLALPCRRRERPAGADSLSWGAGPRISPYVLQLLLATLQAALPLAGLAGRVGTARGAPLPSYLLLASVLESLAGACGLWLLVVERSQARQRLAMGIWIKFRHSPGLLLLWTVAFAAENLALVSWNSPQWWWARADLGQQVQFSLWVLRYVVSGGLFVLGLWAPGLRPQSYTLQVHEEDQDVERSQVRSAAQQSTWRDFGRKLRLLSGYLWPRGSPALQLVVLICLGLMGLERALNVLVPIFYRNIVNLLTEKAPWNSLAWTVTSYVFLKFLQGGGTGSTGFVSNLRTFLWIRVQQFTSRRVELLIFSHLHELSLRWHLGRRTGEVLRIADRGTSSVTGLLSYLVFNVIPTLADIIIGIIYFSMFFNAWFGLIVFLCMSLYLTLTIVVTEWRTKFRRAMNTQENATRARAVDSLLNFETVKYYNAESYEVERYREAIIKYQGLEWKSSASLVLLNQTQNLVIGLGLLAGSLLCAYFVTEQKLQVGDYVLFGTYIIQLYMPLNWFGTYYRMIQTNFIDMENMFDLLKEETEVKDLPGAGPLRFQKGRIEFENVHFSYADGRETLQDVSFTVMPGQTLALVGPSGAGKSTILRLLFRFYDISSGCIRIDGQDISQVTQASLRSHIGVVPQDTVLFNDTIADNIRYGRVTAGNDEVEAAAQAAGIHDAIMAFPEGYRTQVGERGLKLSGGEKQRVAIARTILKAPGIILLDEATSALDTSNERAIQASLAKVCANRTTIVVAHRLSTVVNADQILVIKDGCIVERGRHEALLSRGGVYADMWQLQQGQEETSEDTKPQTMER

SMILES	fluorescence ratio to DMSO
CS(=O)(=O)c1cc([N+](=O)[O-])c2no[n+]([O-])c2c1	inactive: 96%
O=P(Nc1nccs1)(Oc1ccccc1)Oc1ccccc1	inactive: 102%
O=P(Nc1nccs1)(c1ccccc1)c1nc2ccccc2s1 (stereo not given)	inactive: 99%
CCOP1(=S)c2c(C)nn(CCC#N)c2N=C(c2ccccc2F)N1C (stereo not given)	inactive: 90%
O=C(O)COc1ccc([As](=O)(O)O)cc1[N+](=O)[O-]	inactive: 100%
Nc1ccccc1[As](=O)(O)c1ccccc1	inactive: 98%
NC(=O)Nc1ccc([As](=O)(O)O)cc1	inactive: 99%
CN(C(=O)Cc1ccc(Cl)c(Cl)c1)[C@H]1CC[C@@]2(CCCO2)C[C@@H]1N1CCCC1	inactive: 97%
O=[N+]([O-])c1ccc2c(c1)nnn2O	inactive: 100%
CN(C)C(=O)c1cc([N+](=O)[O-])cc2c1-c1c(cc([N+](=O)[O-])cc1[N+](=O)[O-])C2=O	inactive: 98%
CN(C(=O)Cc1ccccc1)[C@@H]1CC[C@]2(CCCO2)C[C@H]1N1CCCC1	inactive: 104%
CCOP1(=S)c2c(C)nn(CCC#N)c2N=C(c2ccc(F)cc2)N1C (stereo not given)	inactive: 101%
N#CCCN(C(=O)COC(=O)C(O)(c1ccccc1)c1ccccc1)c1ccc(F)cc1	inactive: 95%
CS(=O)(=O)c1ccc(Cl)c(NC(=O)COC(=O)C(O)(c2ccccc2)c2ccccc2)c1	inactive: 100%
O=[As](O)(O)c1cccnc1	inactive: 93%
COc1cc(C(=O)NCC2(N3CCOCC3)CCCCC2)cc(Cl)c1OC(C)C	inactive: 96%
O=C(OC1CN2CCC1CC2)c1ccc(Cl)cc1 (stereo not given)	inactive: 99%
Cc1cccc(OCC(=O)OC2CN3CCC2CC3)c1 (stereo not given)	inactive: 101%
O=[As](O)(c1cccc(O)c1)c1cccc(O)c1	inactive: 97%
CCCOP(=S)(Nc1nc(N)cc(=O)[nH]1)OCCC	inactive: 100%
Nc1cccc2c([As](=O)(O)O)cccc12	inactive: 96%
Cc1ccc(NCCc2c([N+](=O)[O-])cc([N+](=O)[O-])cc2[N+](=O)[O-])cc1	inactive: 101%
CCOP(=O)(Nc1cccc2ccccc12)OCC	inactive: 94%
COc1cc(C2NCCC3(OCCO3)C2(C)C)cc(OC)c1OC (stereo not given)	inactive: 96%
CCOP(=O)(Nc1ccc(C)cn1)OCC	inactive: 99%
CN(CCCl)Cc1cc(Cl)c(NC2=NCCN2)c(Cl)c1	inactive: 90%
CCOP(=O)(NC(=NC(C)c1ccccc1)NC(C)c1ccccc1)OCC (stereo not given)	inactive: 99%

SMILES	fluorescence ratio to DMSO
CCC1=CC2Cc3nc4ccc(Cl)cc4c(N)c3C(C1)C2 (stereo not given)	inactive: 110%
O=P1(Nc2ccccn2)COc2ccccc2OC1	inactive: 94%
CC(C)(C)C(=O)NC(Sc1ncccn1)C(Cl)(Cl)Cl (stereo not given)	inactive: 101%
Clc1n[nH]nc1-c1nn[nH][15n]1	inactive: 98%
O=P1(N(CCCl)CCCl)NCCC(C(F)(F)F)O1 (stereo not given)	inactive: 101%
COc1ccccc1CNC(=O)COC(=O)C(O)(c1ccccc1)c1ccccc1	inactive: 98%
CC1(CBr)Cn2c(nc3ccccc3c2=O)S1 (stereo not given)	inactive: 95%
CN(C(=O)Cc1ccc(Cl)c(Cl)c1)[C@@H]1CCCC[C@H]1N1CCCC1	inactive: 100%
CC(C)/C=N\N=C(\N)N[N+](=O)[O-]	inactive: 101%
Cc1ccc(C(=O)OC2CN3CCC2CC3)cc1 (stereo not given)	inactive: 94%
CC1CCC(C(C)C)C(OP(=O)(Nc2ccccn2)c2ccccc2)C1 (stereo not given)	inactive: 105%
Cc1nn(-c2ccccc2)c2c1P(=O)(N1CCOCC1)N(C)C(c1ccccc1)=N2 (stereo not given)	inactive: 92%
CCCC1OP(=O)(Nc2ccccc2)OCC1CC (stereo not given)	inactive: 91%
O=C(/C=C/c1ccccc1)OC1CN2CCC1CC2 (stereo not given)	inactive: 92%
CN(C)C1(CNC(=O)c2ccc(S(C)(=O)=O)cc2)CCCCC1	inactive: 100%
O=P1(Nc2ncccn2)COc2ccccc2OC1	inactive: 106%
Cc1ccc(S(=O)(=O)N(CCCN)CCCc2c(C)nc(N)[nH]c2=O)cc1	inactive: 95%
O=[As](O)(c1cccs1)c1cccs1	inactive: 96%
Cc1ccc(OCC(=O)OC2CN3CCC2CC3)cc1 (stereo not given)	inactive: 93%
NS(=O)(=O)c1cccc(NC(=O)COC(=O)C(O)(c2ccccc2)c2ccccc2)c1	inactive: 95%
O=P1(Nc2ccc(Br)cn2)COc2ccccc2OC1	inactive: 90%
Nc1cccc([As](=O)(O)c2ccccc2)c1	inactive: 97%
CC1CCNP(=O)(N(CCCl)CCCl)O1 (stereo not given)	inactive: 92%
O=C(O)C(O)c1ccc(N(CCCl)CCCl)cc1 (stereo not given)	inactive: 99%
CCOC(=O)Nc1ccc([As](=O)(O)O)c(O)c1	inactive: 99%
Cc1cc(SC(NC(=O)c2ccccc2)C(Cl)(Cl)Cl)nc(C(C)C)n1 (stereo not given)	inactive: 100%
CCCCOc1ccc(C(=O)NCC2(N3CCCCC3)CCCCC2)cc1OC	inactive: 104%

SMILES	fluorescence ratio to DMSO
COP(=O)(OC)N1CC1c1ccccc1 (stereo not given)	inactive: 101%
CCOC(=O)Nc1cccc([As](=O)(O)O)c1	inactive: 106%
O=[N+]([O-])c1ccc(Nc2ccc(Oc3ccc([N+](=O)[O-])cc3[N+](=O)[O-])cc2)c([N+](=O)[O-])c1	inactive: 96%
Cc1cc(SC(NC=O)C(Cl)(Cl)Cl)ncn1 (stereo not given)	inactive: 99%
O=P(Nc1ccccn1)(c1cccc2ccccc12)c1cccc2ccccc12	inactive: 95%
COC(=O)C1(C)COP(=O)(N2CCCC2)OC1 (stereo not given)	inactive: 101%
COP1(=S)c2c(C)nn(CCC#N)c2N=C(c2ccc(F)cc2)N1C (stereo not given)	inactive: 99%
O=C(Nc1ccncc1[N+](=O)[O-])c1ccc([N+](=O)[O-])cc1[N+](=O)[O-]	inactive: 101%
O=C(COc1ccccc1)OC1CN2CCC1CC2 (stereo not given)	inactive: 101%
O=C(O)C(=O)c1ccc(N(CCCl)CCCl)cc1	inactive: 101%
CCOC(=O)c1ccc(NC(=O)C(C)(CCl)SC)cc1 (stereo not given)	inactive: 99%
CSc1ccc(Nc2c([N+](=O)[O-])cc([N+](=O)[O-])cc2[N+](=O)[O-])cc1	inactive: 91%
O=C(OC1CN2CCC1CC2)c1cccc([N+](=O)[O-])c1 (stereo not given)	inactive: 93%
CCC(C)N(CC(C)C)C(=S)SC(NC(C)=O)C(Cl)(Cl)Cl (stereo not given)	inactive: 98%
Cc1cc(=O)[nH]c(N[N+](=O)[O-])n1	inactive: 96%
O=C(OC1CN2CCC1CC2)C12CC3CC(CC(C3)C1)C2 (stereo not given)	inactive: 85%
Cc1c2c(nc3ccccc13)SC(C(Cl)Cl)C2 (stereo not given)	inactive: 103%
COc1cc(I)ccc1[As](=O)(O)O	inactive: 97%
COc1ccc2nc(NP(=O)(c3ccccc3)c3ccccc3)sc2c1	inactive: 101%
O=P1(N(CCCl)CCCl)OCCCN1CCCl (stereo not given)	inactive: 92%
O=P1(N(CCCl)CCCl)Nc2ccccc2N1	inactive: 94%
COc1ccc(N/C(=N/P(=O)(N2CCOCC2)N2CCOCC2)N2CCOCC2)cc1	inactive: 98%
O=[N+]([O-])c1cc(Oc2ccc([N+](=O)[O-])cc2C(F)(F)F)cc([N+](=O)[O-])c1	inactive: 96%
O=[N+]([O-])c1ccc(-c2cc([N+](=O)[O-])c(O)c([N+](=O)[O-])c2)cc1	inactive: 101%
COc1cc(C(=O)NCC2(N3CCOCC3)CCCCC2)ccc1OCC(C)C	inactive: 97%
C[As](=O)(O)c1cccc(C(=O)O)c1	inactive: 99%
O=[As](O)(c1ccc(O)cc1)c1ccccc1O	inactive: 92%

SMILES	fluorescence ratio to DMSO
Cc1ccc2nc3c(c(C)c2c1)CC(C(Cl)Cl)S3 (stereo not given)	inactive: 105%
Cc1ccc(OP(=O)(Nc2ccc([N+](=O)[O-])cn2)Oc2ccc(C)cc2)cc1	inactive: 91%
[N-]=[N+]=NC1CCCCC1NC(=O)c1cc([N+](=O)[O-])cc([N+](=O)[O-])c1 (stereo not given)	inactive: 97%
COC(=O)C1(C)COP(=O)(N2CCCCCC2)OC1 (stereo not given)	inactive: 100%
CC(C)c1ccc(OP(=O)(Nc2ccccn2)Oc2ccccc2F)cc1 (stereo not given)	inactive: 98%
ClCCSc1nnc(-c2cccnc2)o1	inactive: 101%
O=[N+]([O-])c1cc([N+](=O)[O-])c(-c2ccn[nH]2)s1	inactive: 100%
CC(C)NC(=O)NP(=O)(Oc1ccccc1)Oc1ccccc1	inactive: 104%
O=C(OC1CN2CCC1CC2)c1cccc2[nH]cnc12 (stereo not given)	inactive: 98%
CCN(CC)C(=S)SC(NC=O)C(Cl)(Cl)Cl (stereo not given)	inactive: 97%
CCCC1OP(N)(=O)OCC1CC (stereo not given)	inactive: 99%
CC(=O)Nc1ccc([As](=O)(O)O)cc1	inactive: 101%
O=C(O)c1ccccc1[As](=O)(O)O	inactive: 96%
O=P(Nc1nc2ccc(Cl)cc2s1)(c1ccccc1)c1ccccc1	inactive: 103%
CN(C)P(=O)(N(C)C)n1c(Nc2ccccc2)nnc1-c1ccccc1	inactive: 94%
CN(C(=O)Cc1ccc(Cl)c(Cl)c1)[C@H]1CCCC[C@@H]1N1CCCC1	inactive: 93%
Cc1ccc(NP(=O)(Oc2ccccc2F)Oc2ccccc2F)nc1	inactive: 96%
Cc1cc(SC(NC(=O)c2ccc(F)cc2)C(Cl)(Cl)Cl)ncn1 (stereo not given)	inactive: 94%
CCOP(=O)(Nc1ccccc1)OCC	inactive: 103%
CCN(N=Nc1nonc1N)c1nonc1N	inactive: 98%
Nc1cccc2ccc([As](=O)(O)O)cc12	inactive: 102%
NC(=O)c1cc([N+](=O)[O-])cc([N+](=O)[O-])c1N	inactive: 93%
Cc1ccc(N/C(=N/P(=O)(N2CCOCC2)N2CCOCC2)N2CCOCC2)cc1	inactive: 107%
CN(C(=O)Cc1ccc(Cl)c(Cl)c1)[C@H]1CCCC[C@H]1N1CCCC1	inactive: 98%

Reference: PubChem BioAssay AID602162 (NMMLSC, 2011)
